US7015329B2 (Janssen Pharmaceutica N. V., priority 2003, dated 2006)

Amino acid sequences for entries named in this document (tags omitted). Residues count along the entry.
UniProt P37231, 238-503 limits assumed, species assumed: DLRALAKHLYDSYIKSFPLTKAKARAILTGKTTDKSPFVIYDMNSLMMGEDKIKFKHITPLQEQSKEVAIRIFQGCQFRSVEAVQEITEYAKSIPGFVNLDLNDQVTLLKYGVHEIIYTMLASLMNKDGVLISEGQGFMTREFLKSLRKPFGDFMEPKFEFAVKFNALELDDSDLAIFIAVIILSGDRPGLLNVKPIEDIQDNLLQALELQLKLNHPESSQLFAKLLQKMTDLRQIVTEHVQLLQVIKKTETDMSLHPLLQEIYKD

Assays:
PPAR gamma = biological target: T1, PPAR gamma (Homo sapiens, UniProt P37231); experiment: Transfection assay for PPAR receptors (GAL4-LBD luciferase reporter), PPAR gamma; type: cell-based; conditions: Table 2, compounds of interest, HEK293 cells, 18–24 hrs
T1 construct: expressed in transfected cells; host or cells: HEK293

PPAR delta = biological target: T2, PPAR delta (Homo sapiens, UniProt Q03181); experiment: Transfection assay for PPAR receptors (GAL4-LBD luciferase reporter), PPAR delta; type: cell-based; conditions: Table 2, compounds of interest, HEK293 cells, 18–24 hrs
T2 construct: expressed in transfected cells; host or cells: HEK293
T2 sequence (Q03181 211-439 limits assumed): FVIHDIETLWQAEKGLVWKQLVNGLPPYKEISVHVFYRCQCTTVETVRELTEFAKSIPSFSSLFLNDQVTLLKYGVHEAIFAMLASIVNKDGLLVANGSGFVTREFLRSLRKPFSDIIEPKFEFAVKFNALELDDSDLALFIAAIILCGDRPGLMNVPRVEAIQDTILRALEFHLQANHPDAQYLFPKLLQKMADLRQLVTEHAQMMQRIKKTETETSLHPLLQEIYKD

Question: How did the EC50 (PPAR gamma) turn out when “{2-Methyl-4-[5-(4-trifluoromethyl-phenyl)-pyridin-3-ylmethylsulfanyl]-phenoxy}-acetic acid [Compound e]” was run?
Answer: > 3000 nM

Question: What about the EC50 (PPAR delta) of the same substance?
Answer: 37 nM
